The entries are a selection whose mix differs from that of the whole data set. Calls of active or inactive are those of the source.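 How the source made its calls: active means inhibition above about 50% (limit read from the data); inconclusive means inhibition over screen mean plus 3 SD, below that limit; inactive means the rest.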
Biological target: Dual specificity protein phosphatase 1 (Homo sapiens) (UniProt P28562)
Assay: blockers of human DUSP1 activity – biochemical, in vitro, primary screen (AID 374);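 further: 0% = DMSO max control wells and 100% = wells with enzyme stopped by NaOH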
Conditions: recombinant MKP-1, OMFP hydrolysis fluorescence; stronger effect = higher value;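 compounds tested at a single concentration somewhere between 10 and 100 µM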

Protein sequences, listed by entry. Tags and fused reporters are not part of them.
UniProt P28562, whole entry: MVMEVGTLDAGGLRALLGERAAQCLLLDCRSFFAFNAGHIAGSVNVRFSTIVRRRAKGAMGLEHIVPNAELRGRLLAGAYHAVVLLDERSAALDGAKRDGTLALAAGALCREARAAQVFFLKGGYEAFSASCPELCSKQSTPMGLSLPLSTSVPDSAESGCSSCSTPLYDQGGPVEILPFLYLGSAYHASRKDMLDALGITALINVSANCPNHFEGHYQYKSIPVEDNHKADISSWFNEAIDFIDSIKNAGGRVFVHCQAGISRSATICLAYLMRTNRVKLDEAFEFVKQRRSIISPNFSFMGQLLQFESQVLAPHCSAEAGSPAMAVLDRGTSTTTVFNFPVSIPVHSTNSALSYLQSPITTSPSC

| Compound | inhibition |
| --- | --- |
| N/C(=N\O)c1c(N)no[n+]1[O-] | inactive: -11.5% |
| Fc1ccccc1NC1CCN(Cc2ccccc2)CC1 | inactive: 6.08% |
| CCC(CO)(C(=O)OC1CN2CCC1CC2)c1ccccc1 (configuration not stated) | inactive: 6.42% |
| CCOc1ncccc1C(=O)NCC1(N2CCOCC2)CCCCC1 | inactive: 1.48% |
| O=C(OC1CN2CCC1CC2)C1c2ccccc2Oc2ccccc21 (configuration not stated) | inactive: -5.12% |
| COc1ccc(NC2CCN(CCc3ccccc3)CC2)c(OC)c1 | inactive: -15.2% |
| N#CC1(Nc2ccccc2)CCN(CCc2ccccc2)CC1 | inactive: 4.35% |
